Patent publication US20140331365A1 (priority 2008, published 2014)

What was measured:
[1] = test system: soybean leaves carrying Rps1k; conditions: in vivo
[2] = test system: human lung epithelial cell line A549

Structure (SMILES)	hypersensitive response (HR) to Avr1k in Rps1k leaves in the presence of 1,3IP2 [1]	inhibition of accumulation/entry of PfHRPII(N)-GFP in A549 cells [2]
O=P(O)(O)O[C@@H]1C(O)[C@H](OP(=O)(O)O)[C@@H](O)C(O)[C@H]1O (stereo partly drawn) [1,3-IP2, Inositol 1,3 diphosphate]	no HR was observed	could also inhibit entry
O=P(O)(O)OC1[C@@H](O)[C@H](O)C(OP(=O)(O)O)[C@H](O)[C@@H]1O (stereo partly drawn) [IP2, Inositol-1,4-diphosphate]	–	strongly inhibited
